# Antibody variant affinities, Ab-91 heavy chain, assay 2

Antigen: PDVDLGDISGINAS, a 14-residue peptide of the SARS-CoV-2 spike HR2 region.

Each scFv is VL, a 15-residue (Gly4Ser)3 linker, VH, as in the parent Ab-91, and differs from it in the CDRs of the heavy chain only.
VL: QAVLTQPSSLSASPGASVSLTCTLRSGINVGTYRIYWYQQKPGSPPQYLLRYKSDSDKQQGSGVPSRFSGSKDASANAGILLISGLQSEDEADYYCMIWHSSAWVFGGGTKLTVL
VH: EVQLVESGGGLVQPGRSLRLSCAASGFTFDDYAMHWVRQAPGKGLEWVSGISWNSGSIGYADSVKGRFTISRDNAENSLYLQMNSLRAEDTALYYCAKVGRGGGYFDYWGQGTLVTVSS

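The starting antibody came from a phage panning campaign against this peptide. Variants in AAYL51 differ from the parent at up to three CDR positions; double and triple changes were sampled at random. Affinity was read by AlphaSeq, a pooled yeast mating assay with surface-displayed partners. Mating (16 h, 30 °C) was followed by selection of diploids and sequencing of their barcodes. Scores were corrected for input abundance and mapped to Kd with protein pairs of known affinity run in the same pool. The assay was run in three technical replicates.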

Variants are written as CDR1, CDR2 and CDR3 of the heavy chain (limits as in the source). Parent: GFTFDDYAMH, GISWNSGSIGYADSVK, VGRGGGYFDY.
The read-out is the apparent dissociation constant on a log10 scale (nM): the lower, the stronger.
Replicates are averaged; those with no signal do not enter the mean.
"nd" marks a missing value. The strain was present, yet no cells mated with the target were sequenced in any replicate, which points to weak or no binding.

| mean log10 Kd (nM) | replicates with signal | CDR-H1 | CDR-H2 | CDR-H3 |
|---|---|---|---|---|
| 4.94 | 2 of 3 | GRTFDDYAMH | GISWNSGSIGYADSVK | VGRGGDYFDY |
| 2.78 | 3 of 3 | GFTFDDYAMH | GISWMSGSTGYADSVK | VGRGGGCFDY |
| nd | 0 of 3 | WFTFDDYAMH | GISWNSGSHGWADSVK | VGRGGGYFDY |
| nd | 0 of 3 | GFTLDDAAMH | GISWNSGSIMYADSVK | VGRGGGYFDY |
| nd | 0 of 3 | GFTFDDWAMH | GISWNSGSIIYADSVK | DGRGGGYFDY |
| 4.41 | 2 of 3 | GFTFDDYAMH | GISWNSGSIGYADTVK | VGYGGGYADY |
| nd | 0 of 3 | GFTFDDYAMH | GIRWNSGSIGYADSVH | WGRGGGYFDY |
| 5.18 | 2 of 3 | FFTFDDYAMH | GNSWNSGSIGYADSVK | VGRGGGYFQY |
| 2.83 | 3 of 3 | GFTFDDYAMH | GISWNSGSIGAADSVK | VGRGGGYFDF |
| 2.57 | 3 of 3 | GETFDDYAMH | GISANSGSIGYADSVK | VGRGGGYFDY |
| 4.57 | 1 of 3 | GFTFDVYACH | GISWNSGSIGYADSVK | VGRIGGYFDY |
| 6.21 | 1 of 3 | GKTFDDIAMH | GISWNSGSIGYADSVK | VGRGEGYFDY |
| 2.81 | 3 of 3 | GFTFDDYAMH | GISWNSGSCGYADSVC | VGRGGGYFDY |
| nd | 0 of 3 | TFTFDDYAMH | GISWNSGSIGYAGSVK | VWRGGGYFDY |
| nd | 0 of 3 | GFTFDVSAMH | GISWNSGSIGYADSVK | VGRGGGNFDY |
| nd | 0 of 3 | GFTFDDYAMQ | GISWNSGSGGYADSVK | VGRGGGYFDV |
| 1.42 | 3 of 3 | GFTFDDYAMH | GISWNTGSMGYADSVK | VGRGGGYFDV |
| nd | 0 of 3 | GFTFDDYAMH | EISKNSGSIGYADSVK | VGRGYGYFDY |
| nd | 0 of 3 | GFTFDDYAMH | GISWNSGSIDYADSMK | VGRGGAYFDY |
| 0.98 | 3 of 3 | GFTFDDYAMH | GISWNSGSSGYADSVK | VGRRGPYFDY |
| 4.51 | 2 of 3 | GNTFDDYAMH | GISWNMGSIGYAWSVK | VGRGGGYFDY |
| nd | 0 of 3 | GFTFDDYAMR | GISWFSGSIPYADSVK | VGRGGGYFDY |
| 3.45 | 2 of 3 | GFTLDDYAMH | GISWNSGSIGYADVVG | VGRGGGYFDY |
| 5.02 | 2 of 3 | GFTFDPYAMH | GISWNSGSLGYACSVK | VGRGGGYFDY |
| 4.77 | 2 of 3 | GFTFDDYAMH | GISWQSGSIGYADSVK | VGRGGCYFDW |
| nd | 0 of 3 | GFTFDDYAMH | GISWNSGSIGYADVVK | CGRYGGYFDY |
| nd | 0 of 3 | GTTFDDYAMH | FISWNSGSVGYADSVK | VGRGGGYFDY |
| nd | 0 of 3 | GFTFDDYAMH | GISWTSGSIGYADSVK | VGRCGGYFHY |
| nd | 0 of 3 | GITFDDYAMH | GISWNSGSIGYADSVK | VGVGGGYFDY |
| nd | 0 of 3 | GFTFDDYMMH | GISWNSGSIGYADSVC | VGRGGGYQDY |
| 2.03 | 2 of 3 | GFTFDDYALH | GISWNSGSAGYADSVK | VGMGGGYFDY |
| 4.56 | 3 of 3 | GFIMDDYAMH | GISWNSGSIGYADSVK | VGRGGGYNDY |
| nd | 0 of 3 | GFTFDDYAMH | GISWNSMSIGYKWSVK | VGRGGGYFDY |
| 6.23 | 1 of 3 | GFTHDDYAMH | GISWNHGSIGYADSVP | VGRGGGYFDY |
| 5.02 | 2 of 3 | GFTFDDYAHH | GISWNSGSIGYADSVV | VGRGGGYFDY |
| 4.99 | 2 of 3 | GTTFDDYAMH | GFSENSGSIGYADSVK | VGRGGGYFDY |
| 4.04 | 2 of 3 | GFTFDDYAMH | GISWMSGSLGYADSVK | VGRGGGYFDY |
| 5.20 | 2 of 3 | GFTFDRYAMH | GISWNSGSIGYLDSVK | QGRGGGYFDY |
| 1.04 | 3 of 3 | GFTFDDYAMH | GISWNSGSIGYGDSFK | VWRGGGYFDY |
| 6.42 | 1 of 3 | GFTFDDYADH | GISWNSGSIGYASSQK | VGRGGGYFDY |
| 4.50 | 1 of 3 | GFTFDDYAMP | GISWNSGSIGSADSVK | RGRGGGYFDY |
| 2.85 | 3 of 3 | GFTFDDYAMH | GISWQSGSIGYADSVK | VGRGGGYDIY |
| 4.76 | 1 of 3 | AFTFDDYAMH | RISWNSGSIGYAESVK | VGRGGGYFDY |
| 0.96 | 3 of 3 | GFTFADYAMH | GISGNSGSIGYADSVK | VGRGGGYFDF |
| 4.40 | 1 of 3 | GFMFDDYAMH | GIIWNSGSIGYEDSVK | VGRGGGYFDY |
| 4.64 | 3 of 3 | GFTFDDYIMH | GISWNSGSSGYADSVK | VGRGCGYFDY |
| 4.83 | 1 of 3 | GFTFDDYAMH | GISWNNGSIEYADSVK | VGRGGGYFDY |
| 5.52 | 1 of 3 | GFTFDDYAMH | YISWNSGGIGYADSVK | VGRGGGYFHY |
| nd | 0 of 3 | GFMPDDYAMH | GISWNLGSIGYADSVK | VGRGGGYFDY |
| nd | 0 of 3 | GFTFDDYAMH | CISWNSGSIGYADSVK | KGRGMGYFDY |
| nd | 0 of 3 | GFTFDDYAMH | RDSWNSGSIGYADRVK | VGRGGGYFDY |
| nd | 0 of 3 | GFTFDDYAMH | VISWNSGSIGYADSVK | VGCWGGYFDY |
| 5.77 | 2 of 3 | GKTFDIYAMH | GISWNSGSIGYADSVK | VGRGGGYRDY |
| 5.21 | 1 of 3 | GFTFDDYAMH | GIMWNSGSIGYADSVK | VGRGGGYFGY |
| nd | 0 of 3 | GFVFDTYAMH | GLSWNSGSIGYADSVK | VGRGGGYFDY |
| 1.12 | 3 of 3 | GFTFDLYAMH | GISWNSGSIGYADSVK | VYRGRGYFDY |
| nd | 0 of 3 | GFTGDDYAMH | GISWNSGSIGYADGVK | VGRGGGYFDY |
| 4.43 | 1 of 3 | GFTLDDYAMH | GISWNSGSIGYADSVK | VERGGGYFDG |
| nd | 0 of 3 | GFTFDDYAMH | GISWNSGSIGYAFSTK | VGRAGGYFDY |
| nd | 0 of 3 | GFTFDDYAMH | GISWNSGPHGYADSAK | VGRGGGYFDY |
| nd | 0 of 3 | GCTFDDYAMH | GISWNSGSIGYADSVK | VGRGGNYFDY |
| nd | 0 of 3 | GFTFDDYKMH | GISANSGSIGYADSVD | VGRGGGYFDY |
| nd | 0 of 3 | GFTFDDYAMH | GITWNSGSIGYADSVK | VGRGGGYKCY |
| 5.44 | 2 of 3 | GFTFDDYAMH | GIPWNKGSIGYADSVK | VGRGGGYFDY |
| 4.16 | 2 of 3 | GFTFDDYAMK | GISWNSGSIGYADSVK | VGRGGDYGDY |
| 1.81 | 1 of 3 | GFTFTDYAMH | GISWNSGVIGYADSVK | VGRGMGYFDY |
| nd | 0 of 3 | GFTFDDYAMH | GISWKSGSIGYAGSVK | VGRGGGDFDY |
| nd | 0 of 3 | GFTFDDYAGH | GILWNSGSIGYADSVK | VGRGGGYFDY |
| 5.18 | 1 of 3 | GFTFHDYAMH | PIRWNSGSIGYADSVK | VGRGGGYFDY |
| nd | 0 of 3 | GFTFDDYAMT | GISWNVGSIGHADSVK | VGRGGGYFDY |
| 4.96 | 1 of 3 | GFTFDDYAMH | GISWNSGSIGQADSVK | VWRGGHYFDY |
| 4.68 | 2 of 3 | GFTFDDYAMG | GISWVSRSIGYADSVK | VGRGGGYFDY |
| nd | 0 of 3 | GFTFDHYAMH | GISWNSGSIGYADCVK | PGRGGGYFDY |
| 4.59 | 1 of 3 | GQTFDDYAMV | NISWNSGSIGYADSVK | VGRGGGYFDY |
| 3.81 | 1 of 3 | GFNFDDYAMH | GASLNSGSIGYADSVK | VGRGGGYFDY |

Nonspecific signal, from three strains lacking the peptide, appeared in 21% of pairings of library AAYL51, centred on 4.54 (5% of these signals below 3.26); values are not corrected for it.
Parent in this assay: reference entry 1.86, copy in this library 0.88.

Source: Engelhart et al. 2022 (doi:10.1038/s41597-022-01779-4), MIT Lincoln Laboratory and A-Alpha Bio; data file from the FLAb repository.